Test results as given in US5610025A, “Inhibition of interfering endogenous enzyme activity in assays of biological fluids” (Actimed Laboratories, Inc., priority 1993, dated 1997).

Amino acid sequences for entries named in this document (tags omitted). Residues count along the entry.
UniProt P04040, 2-527 limits assumed: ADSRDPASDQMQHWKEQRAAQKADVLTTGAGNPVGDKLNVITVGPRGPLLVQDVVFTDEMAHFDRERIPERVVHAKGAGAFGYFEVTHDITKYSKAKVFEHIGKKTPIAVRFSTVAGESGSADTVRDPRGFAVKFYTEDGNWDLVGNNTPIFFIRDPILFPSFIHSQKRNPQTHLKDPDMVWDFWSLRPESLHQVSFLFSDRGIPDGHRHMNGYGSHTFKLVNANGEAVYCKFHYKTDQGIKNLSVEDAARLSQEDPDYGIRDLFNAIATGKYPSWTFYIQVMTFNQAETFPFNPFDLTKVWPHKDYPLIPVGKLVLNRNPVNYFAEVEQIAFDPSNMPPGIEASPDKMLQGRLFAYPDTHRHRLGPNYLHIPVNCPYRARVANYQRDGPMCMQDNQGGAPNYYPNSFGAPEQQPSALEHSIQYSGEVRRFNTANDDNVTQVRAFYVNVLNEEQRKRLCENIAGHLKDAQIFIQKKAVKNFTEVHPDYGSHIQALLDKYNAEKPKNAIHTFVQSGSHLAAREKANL

Molecular target: catalase (Homo sapiens, UniProt P04040)
Experiment: Catalase inhibitor screening, aqueous hydrogen peroxide samples with added catalase, dye indicator/peroxidase system, absorbance at 514 nm
Format: biochemical
Conditions: inhibitor concentration 40 mM

[N-]=[N+]=[N-] [Sodium azide]
% Recovery (of absorbance): 109%
